Data on 102 molecules can be found in PubChem BioAssay AID1832 (Broad Institute, 2009).

Amino acid sequences for entries named in this document (tags omitted). A change or cut given only in a name is not applied to a line headed by its entry.
UniProt Q9XUB2: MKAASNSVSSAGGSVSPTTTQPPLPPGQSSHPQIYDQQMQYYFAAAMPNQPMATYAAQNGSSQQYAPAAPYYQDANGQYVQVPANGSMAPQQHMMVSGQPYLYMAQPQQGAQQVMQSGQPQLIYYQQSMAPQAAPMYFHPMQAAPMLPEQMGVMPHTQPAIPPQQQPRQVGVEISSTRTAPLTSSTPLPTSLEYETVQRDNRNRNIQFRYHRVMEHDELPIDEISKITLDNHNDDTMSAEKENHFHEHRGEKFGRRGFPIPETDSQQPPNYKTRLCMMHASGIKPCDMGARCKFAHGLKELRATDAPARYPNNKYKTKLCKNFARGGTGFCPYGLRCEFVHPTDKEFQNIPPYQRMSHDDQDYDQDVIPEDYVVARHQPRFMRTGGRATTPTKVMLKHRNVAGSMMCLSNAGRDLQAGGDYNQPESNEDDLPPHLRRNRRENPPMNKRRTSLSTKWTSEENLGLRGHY

Only a part is listed here, and it is no random draw. Active and inactive are the calls of the source.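 Rule for the calls: active = inhibition past about -25% in most replicates, and total fluorescence under double the plate's negative control median (limit read from the data); inconclusive = replicates evenly split on the limit, or fluorescence at least double controls; inactive = too little inhibition in most replicates.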

In the assay the target is Zinc finger protein mex-5 (Caenorhabditis elegans) (UniProt Q9XUB2). Put plainly: MEX-5 zinc finger RNA-binding disruptors – biochemical, C. elegans, fluorescence polarization, MLPCN library, primary screen (AID 1832).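 Note: 0% = DMSO and -100% = 5 µM competing unlabeled TCR2 RNA.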 As to conditions: MEX-5/FITC-TCR2 RNA binding, at 10 µM, active compounds read low. (In fluorescence polarisation assays a small probe gives low polarisation when free and higher when bound to something large.)
Regarding `O=C(O)CNc1ccc([As](=O)(O)O)cc1`, the activity score (negative = inhibition of binding) is inactive: 0.89%. For `O=[N+]([O-])c1cccc(NC2=NCC(CBr)S2)c1` (configuration not stated) the value was inactive: -2%; for `O=[N+]([O-])c1ncn(CCn2ncnc2[N+](=O)[O-])n1`, inactive: -1.06%; for `CC(C)(C)C(=O)NC(Sc1ccncn1)C(Cl)(Cl)Cl` (configuration not stated), inactive: 0.497%.

On to `O=C(Nc1cc([As](=O)(O)O)ccc1O)c1ccccc1`, for which the activity score (negative = inhibition of binding) was inactive: -14.7%. For `CC1CCN(C(=O)Oc2c(Cl)cc(Cl)c3cccnc23)CC1` the value was inactive: -0.717%; for `CC(C)=N/N=C(\N)N[N+](=O)[O-]`, inactive: 1.8%; for `CN(C)C(=O)OCCc1n(C)cc[n+]1C`, inactive: -2.23%. For `CCN(/C(=N/P(=O)(N1CCOCC1)N1CCOCC1)N1CCOCC1)c1ccc(OC)cc1` the value was inactive: 2.79%; for `Nc1ccc([As](=O)(O)c2ccc(N)cc2)cc1`, inactive: 1.53%.

As for `C[N+]1=C2C=CC=CC=C2SC12C([N+](=O)[O-])=CC([N+](=O)[O-])=C[C-]2[N+](=O)[O-]` (configuration not stated), the activity score (negative = inhibition of binding) is inactive: -2.61%.

For `Cc1ccc(NP(=O)(Oc2ccccc2)Oc2ccccc2)nc1`, the activity score (negative = inhibition of binding) is inactive: -1.17%. In the case of `CCc1nc2c(n1)c1c(non1O)c1c2no[n+]1[O-]`, the activity score (negative = inhibition of binding) is inactive: -1.32%. The value for `O=[N+]([O-])c1cc([N+](=O)[O-])c(CCNc2ccccc2)c([N+](=O)[O-])c1` was inactive: 0.418%; that for `O=[N+]([O-])c1cccc2n[nH]nc12` was inactive: -0.849%.

Take `CC(=O)N1C2C3N(C(C)=O)C1C1N(C(C)=O)C(C(N1C(C)=O)N3C(C)=O)N2C(C)=O`: the activity score (negative = inhibition of binding) is inactive: -0.288%. Consider `COc1ccc(C2=NCC(CBr)S2)cc1` (configuration not stated), for which the activity score (negative = inhibition of binding) was inactive: 4.14%. The value for `Oc1ccccc1CNc1ccccn1` was inactive: 1.1%; that for `Cc1c2non([O-])c-2c(C)[n+](=O)[n+]1[O-]` was inactive: -2.85%. Take `O=C(NC(Sc1ccncn1)C(Cl)(Cl)Cl)c1ccccc1` (configuration not stated): the activity score (negative = inhibition of binding) was inactive: 3.88%. For `CC(C)CC(=O)NC(Sc1ccc(Cl)cc1)C(Cl)(Cl)Cl` (configuration not stated) the value was inactive: 0.087%; for `Nc1cc(N)c2nonc2c1[N+](=O)[O-]`, inactive: -1.01%; for `Clc1ccc(Cl)c(NC2=NCC(CBr)S2)c1` (configuration not stated), inactive: -0.418%. For `CN1CCCC(OC(=O)C(c2ccccc2)c2ccccc2)C1` (configuration not stated) the value was inactive: -1.49%. For `COc1ccccc1OP(=O)(Nc1ccc(C)cn1)Oc1ccccc1OC` the value was inactive: 0.881%; for `Cc1ccc(OP(=O)(Nc2nccs2)Oc2ccc(C)cc2)cc1`, inactive: 1.75%; for `Cc1ccc(N/C(=N/P(=O)(N2CCOCC2)N2CCOCC2)N2CCOCC2)cc1`, inactive: -1.24%.

As for `NC(=O)c1cc([N+](=O)[O-])cc([N+](=O)[O-])c1N`, the activity score (negative = inhibition of binding) is inactive: 1.98%.

Turning to `Nc1cccc2ccc([As](=O)(O)O)cc12`, the activity score (negative = inhibition of binding) was active: -50.5%. In the case of `CCN(N=Nc1nonc1N)c1nonc1N`, the activity score (negative = inhibition of binding) was inactive: -2.83%.

Take `O=[N+]([O-])c1cc([N+](=O)[O-])c(CCN2CCOCC2)c([N+](=O)[O-])c1`: the activity score (negative = inhibition of binding) is inactive: -2.65%. For `CCOP(=O)(Nc1ccccc1)OCC`, the activity score (negative = inhibition of binding) is inactive: -1.12%. The value for `Cc1cc(SC(NC(=O)c2ccc(F)cc2)C(Cl)(Cl)Cl)ncn1` (configuration not stated) was inactive: 1.17%; that for `Cc1ccc(NP(=O)(Oc2ccccc2F)Oc2ccccc2F)nc1` was inactive: -1.84%. The value for `CN(C(=O)Cc1ccc(Cl)c(Cl)c1)[C@H]1CCCC[C@@H]1N1CCCC1` was inactive: 3.53%; that for `O=P(Nc1nc2ccc(Cl)cc2s1)(c1ccccc1)c1ccccc1` was inactive: -1.75%; that for `O=C(O)c1ccccc1[As](=O)(O)O` was inactive: 1.36%. Regarding `CC(=O)Nc1ccc([As](=O)(O)O)cc1`, the activity score (negative = inhibition of binding) was inactive: 1.19%. The value for `Cc1ccccc1OP(=O)(Nc1ccccn1)Oc1ccccc1C` was inactive: 1.3%.

As for `CN(C)C(=O)Oc1noc2ccccc12`, the activity score (negative = inhibition of binding) is inactive: 2.79%.

Consider `O=C(OC1CN2CCC1CC2)c1ccccc1` (configuration not stated), for which the activity score (negative = inhibition of binding) was inactive: 1.04%. For `CCC(=O)N1C2C3N(C(=O)CC)C1C1N(C(=O)CC)C(C(N1C(=O)CC)N3C(=O)CC)N2C(=O)CC` the value was inactive: -3.88%.

Turning to `COC(=O)c1cc2c(s1)N=C(c1ccccc1)N(C)P2(=O)N1CCOCC1` (configuration not stated), the activity score (negative = inhibition of binding) is inactive: -2.38%.

`CC(=O)NC(SC(=S)N(CC(C)C)CC(C)C)C(Cl)(Cl)Cl` (configuration not stated): the activity score (negative = inhibition of binding) is inactive: 0.828%.

For the molecule `Cc1ccc(OP(=O)(Nc2ccccn2)Oc2ccc(C)cc2)cc1`, the activity score (negative = inhibition of binding) was inactive: 0.966%. For `c1ccc(-c2nn[nH]n2)c(-c2nn[nH]n2)c1` the value was inactive: 4.92%; for `Cc1ccc(NP(=O)(Oc2cccc(C)c2)Oc2cccc(C)c2)nc1`, inactive: -0.489%; for `CCOC(=O)NC(Sc1ccccc1)C(Cl)(Cl)Cl` (configuration not stated), inactive: 0.976%.

Consider `CCNC(=S)/N=C(\N)N[N+](=O)[O-]`, for which the activity score (negative = inhibition of binding) is inactive: -1.85%. The value for `O=C(NC1CCS(=O)(=O)C1)NP(=S)(Oc1ccccc1)Oc1ccccc1` (configuration not stated) was inactive: 1.62%; that for `CC(=O)Nc1ccc([As](=O)(O)O)c(O)c1` was inactive: -2.45%; that for `CC(=O)Nc1ccc(Oc2c([N+](=O)[O-])cc([N+](=O)[O-])cc2[N+](=O)[O-])cc1` was inactive: -0.109%. As for `C[C@@H]1C=CCP(=O)(Oc2ccccc2)O1` (some centres not stated), the activity score (negative = inhibition of binding) is inactive: -1.73%. The value for `C[C@H]1OP(=O)(Oc2ccccc2)C[C@@H]2O[C@@H]21` (some centres not stated) was inactive: 0.664%. For `CC(=O)c1ccc(N2CC2c2ccncc2)cc1` (configuration not stated) the value was inactive: -0.289%; for `CC(C)(C)C(=O)NC(Sc1ccccc1)C(Cl)(Cl)Cl` (configuration not stated), inactive: -0.176%. As for `O=P1(Nc2nc3ccc(Cl)cc3s2)COc2ccccc2O1` (configuration not stated), the activity score (negative = inhibition of binding) is inactive: -0.267%.

For the molecule `CCOc1ccc(C2=NCC(CBr)S2)cc1` (configuration not stated), the activity score (negative = inhibition of binding) is inactive: -0.196%. As for `c1nnnn1CCn1cnnn1`, the activity score (negative = inhibition of binding) was inactive: -4.01%.

Consider `CC(C)C(=O)NC(Sc1ccccc1)C(Cl)(Cl)Cl` (configuration not stated), for which the activity score (negative = inhibition of binding) was inactive: 1.99%. The value for `O=P(Nc1nccs1)(c1ccccc1)c1ccccc1` was inactive: 1.13%; that for `O=C(OC1CN2CCC1CC2)c1cccc(Cl)c1` (configuration not stated) was inactive: 0.306%; that for `Nc1ccc([As](=O)(O)c2ccc([N+](=O)[O-])cc2)cc1` was inactive: -1.37%. The value for `C(Cc1nn[nH]n1)Cc1nn[nH]n1` was inactive: -0.784%; that for `O=[As](O)(c1ccccc1)c1ccc(O)cc1` was inactive: 1.69%; that for `O=[N+]([O-])c1ccc(O)c(/C=N/Nc2ccc([N+](=O)[O-])cc2[N+](=O)[O-])c1` was inactive: 0.594%. The value for `O=[N+]([O-])c1ncn(CCn2cnc([N+](=O)[O-])n2)n1` was inactive: 2.31%; that for `O=P(Nc1nc2ccccc2s1)(c1ccccc1)c1ccccc1` was inactive: -3.47%; that for `C[C@H]1OP(=O)(Oc2ccccc2)[C@H](O)[C@H](O)[C@H]1N=[N+]=[N-]` (some centres not stated) was inactive: 0.512%.

On to `O=P(Nc1ccccn1)(c1ccc(Br)cc1)c1ccc(Br)cc1`, for which the activity score (negative = inhibition of binding) is inactive: 0.594%.

In the case of `CN(C)C1(CNC(=O)c2ccc(Cl)c(S(N)(=O)=O)c2)CCCCC1`, the activity score (negative = inhibition of binding) is inactive: 1.6%.

Consider `Nc1cccc([As](=O)(O)c2ccccc2)c1`, for which the activity score (negative = inhibition of binding) was inactive: -0.505%. For `O=P1(Nc2ccc(Br)cn2)COc2ccccc2OC1` the value was inactive: -1.38%; for `Cc1ccc(OCC(=O)OC2CN3CCC2CC3)cc1` (configuration not stated), inactive: -1.62%. The value for `O=[As](O)(c1cccs1)c1cccs1` was inactive: -1.25%; that for `O=P1(Nc2ncccn2)COc2ccccc2OC1` was inactive: -1.11%. Consider `CN(C)C1(CNC(=O)c2ccc(S(C)(=O)=O)cc2)CCCCC1`, for which the activity score (negative = inhibition of binding) was inactive: -0.507%.

In the case of `O=C(/C=C/c1ccccc1)OC1CN2CCC1CC2` (configuration not stated), the activity score (negative = inhibition of binding) is inactive: -2.67%. Take `Cc1nn(-c2ccccc2)c2c1P(=O)(N1CCOCC1)N(C)C(c1ccccc1)=N2` (configuration not stated): the activity score (negative = inhibition of binding) is inactive: 1.69%.

Take `CC1CCC(C(C)C)C(OP(=O)(Nc2ccccn2)c2ccccc2)C1` (configuration not stated): the activity score (negative = inhibition of binding) is inactive: 1.99%. The value for `Cc1ccc(C(=O)OC2CN3CCC2CC3)cc1` (configuration not stated) was inactive: -0.264%. As for `CC(C)/C=N\N=C(\N)N[N+](=O)[O-]`, the activity score (negative = inhibition of binding) is inactive: -0.74%. For `CN(C(=O)Cc1ccc(Cl)c(Cl)c1)[C@@H]1CCCC[C@H]1N1CCCC1` the value was inactive: -1.21%; for `O=[As](O)(c1ccccc1Br)c1ccccc1Br`, inactive: 1.36%; for `CC1(CBr)Cn2c(nc3ccccc3c2=O)S1` (configuration not stated), inactive: -0.000535%. The value for `COc1ccccc1CNC(=O)COC(=O)C(O)(c1ccccc1)c1ccccc1` was inactive: -3.57%; that for `Clc1n[nH]nc1-c1nn[nH][15n]1` was inactive: 0.499%. The value for `CC(C)(C)C(=O)NC(Sc1ncccn1)C(Cl)(Cl)Cl` (configuration not stated) was inactive: -6.5%. Take `O=P1(Nc2ccccn2)COc2ccccc2OC1`: the activity score (negative = inhibition of binding) is inactive: 1.89%. For `CCC1=CC2Cc3nc4ccc(Cl)cc4c(N)c3C(C1)C2` (configuration not stated) the value was inactive: -0.742%; for `CCOP(=O)(NC(=NC(C)c1ccccc1)NC(C)c1ccccc1)OCC` (configuration not stated), inactive: 0.262%; for `CN(CCCl)Cc1cc(Cl)c(NC2=NCCN2)c(Cl)c1`, inactive: -0.193%. The value for `CCOP(=O)(Nc1ccc(C)cn1)OCC` was inactive: -2.09%; that for `COc1cc(C2NCCC3(OCCO3)C2(C)C)cc(OC)c1OC` (configuration not stated) was inactive: -1.57%; that for `CCOP(=O)(Nc1cccc2ccccc12)OCC` was inactive: 0.34%. The value for `Cc1ccc(NCCc2c([N+](=O)[O-])cc([N+](=O)[O-])cc2[N+](=O)[O-])cc1` was inactive: 1.64%.

Regarding `CCCOP(=S)(Nc1nc(N)cc(=O)[nH]1)OCCC`, the activity score (negative = inhibition of binding) was inactive: 1.78%. For `O=[As](O)(c1cccc(O)c1)c1cccc(O)c1` the value was inactive: 0.77%; for `Cc1cccc(OCC(=O)OC2CN3CCC2CC3)c1` (configuration not stated), inactive: 1.7%; for `O=C(OC1CN2CCC1CC2)c1ccc(Cl)cc1` (configuration not stated), inactive: 1.64%. The value for `COc1cc(C(=O)NCC2(N3CCOCC3)CCCCC2)cc(Cl)c1OC(C)C` was inactive: -1.75%. The value for `O=[As](O)(O)c1cccnc1` was inactive: 0.767%.
